# scFv variants of Ab-91 (heavy chain) against a SARS-CoV-2 spike peptide

Reference: Engelhart et al. 2022, doi:10.1038/s41597-022-01779-4. File: FLAb, binding data.

Target peptide (SARS-CoV-2 spike, HR2 region): PDVDLGDISGINAS

Parent scFv Ab-91: VL joined to VH by a (GGGGS)3 linker. Changes lie in the heavy chain CDRs alone.
VL: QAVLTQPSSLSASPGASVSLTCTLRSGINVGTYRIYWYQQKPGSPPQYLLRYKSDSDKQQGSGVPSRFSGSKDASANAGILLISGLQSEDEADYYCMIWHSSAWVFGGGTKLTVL
VH: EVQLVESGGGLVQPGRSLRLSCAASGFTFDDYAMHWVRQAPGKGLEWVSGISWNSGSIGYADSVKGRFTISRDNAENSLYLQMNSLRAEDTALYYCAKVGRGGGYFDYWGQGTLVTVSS

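Phage display of a naive human antibody library on the peptide gave the parent. AAYL51 was designed without a model: most single CDR substitutions and a random sample of double and triple ones. The assay is AlphaSeq: two haploid yeast populations carry antibody and antigen on their surface. The frequency of each diploid, read from paired DNA barcodes, reflects how well the two displayed proteins bind. The ratio of observed to expected reads was calibrated, replicate by replicate, on BCL2-family standards whose Kd was known from biolayer interferometry. There are three technical replicates.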

Changes read parent residue, position, new residue, counted from the first residue of the VH shown. Affinities are written as log10 Kd with Kd in nM; a lower number is a better binder. Averages over replicates are reported, and they cover detected replicates only. "no signal" marks a missing value. The strain was present, yet no cells mated with the target were sequenced in any replicate, which points to weak or no binding.

changes	log10 Kd (nM), mean	replicates with signal
G50W+D62G+G103V	3.75	1/3
F29T+A61P+Y105G	5.12	3/3
F29S+G59V+Y108S	4.25	2/3
M34Y+N54K+G103A	4.78	1/3
G26K+G50W+N54M	4.65	3/3
I58V+D62V+G102C	1.51	3/3
W53R+A61I+K65E	4.90	3/3
D30S+A61Q+R101D	1.73	3/3
G26M+T28M+G104R	no signal	0/3
G50N+G56A+S63H	5.36	2/3
G26W+G56P+G102S	3.79	1/3
D30L+R101K	2.02	3/3
G26C+D30K+V64F	no signal	0/3
T28M+H35Q+V99H	4.61	2/3
D31L+S55G	0.57	3/3
W53F+A61D	2.13	3/3
T28Q+S55R+Y60M	4.33	1/3
G26S+S55R+G103L	no signal	0/3
A33S+G59C+V64C	3.80	2/3
V99A+R101V+Y105F	no signal	0/3
W53E+N54E	no signal	0/3
N54Q+A61P	4.40	1/3
Y32M+G100S+F106S	4.36	2/3
V99C+R101E+F106C	no signal	0/3
G50M+G56H+R101T	no signal	0/3
D62I+S63D+R101E	4.61	1/3
D31F+G103C	3.73	1/3
Y32L+G102C+D107Y	4.55	1/3
D30A+G56S+A61H	1.91	3/3
F27G+Y60A+Y105K	no signal	0/3
I51W+S52A+I58R	5.26	2/3
D31S+I58N+G100N	2.63	3/3
N54V+V64Y+Y105S	no signal	0/3
G26V+Y32D+G102T	3.41	1/3
D62I+G104S+Y108E	5.13	3/3
Y32R+D62F+G100S	no signal	0/3
Y32K+D62E+V64N	no signal	0/3
I51M+S63M+G104Y	3.19	3/3
Y32H+I58K+Y105F	no signal	0/3
Y60C+G100P+R101Y	3.16	1/3
G59T+G104R+D107W	4.61	1/3
F29A+M34F+G50E	6.05	1/3
G100Q+G102P+Y105A	4.12	1/3
N54K+G59N+D107A	4.70	1/3
D30V+R101E	no signal	0/3
S55C+G56K+F106C	4.50	1/3
T28C+M34I+G104M	5.06	3/3
N54M+Y60A+G103R	no signal	0/3
W53F+S55Q	2.01	2/3
S52A+R101H+G102K	no signal	0/3
A61L+D62P+G104A	5.10	3/3
D31I+W53A+S55T	4.08	1/3
S55M+G56R+S57T	no signal	0/3
S52G+K65W+Y108M	4.35	1/3
M34E+S52I+G104A	5.14	1/3
S63W+D107V	6.22	2/3
V64C+G100Q	no signal	0/3
T28G+A33K+R101D	2.88	1/3
G26P+T28L+G102I	no signal	0/3
G50Q+G56H+S63N	no signal	0/3
T28I+G50R+S55M	6.02	2/3
F29M+N54P+K65Q	no signal	0/3
T28H+H35Q+N54R	5.53	2/3
G59A+D62R+V99H	4.77	3/3
S57Y+G100D+Y108N	no signal	0/3
D31G+G50W+W53G	no signal	0/3
H35Y+D62T+V99G	4.07	1/3
F29P+D30L+S57T	4.66	2/3
F27M+F29N+Y60C	no signal	0/3
T28F+V99A+D107K	4.96	1/3

The first 9 entries again:

changes	log10 Kd (nM), mean	replicates with signal
G50W+D62G+G103V	3.75	1/3
F29T+A61P+Y105G	5.12	3/3
F29S+G59V+Y108S	4.25	2/3
M34Y+N54K+G103A	4.78	1/3
G26K+G50W+N54M	4.65	3/3
I58V+D62V+G102C	1.51	3/3
W53R+A61I+K65E	4.90	3/3
D30S+A61Q+R101D	1.73	3/3
G26M+T28M+G104R	no signal	0/3

Three control strains display no target. For library AAYL51, 21% of the pairings with them gave a signal, with a median of 4.54 and one signal in twenty below 3.26, so weak values seen in few replicates may be background. Parent in this assay: reference entry 1.86, copy in this library 0.88.